Assay results reported in patent US20160024487.

Key:
[1] = system: Lys(Dnp)-ATNATINPRIVGG-Lys(Abz)
[2] = system: Lys(Dnp)-ATNATDNPRIVGG-Lys(Abz)
[3] = system: Lys(Dnp)-ATNATEFPRIVGG-Lys(Abz)
[4] = system: Lys(Dnp)-ATNATX4X3PRIVGG-Lys(Abz), X4 = N, X3 = T
[5] = system: Lys(Dnp)-ATNATX4X3PRIVGG-Lys(Abz), X4 = S, X3 = G
[6] = system: Lys(Dnp)-ATNATYRPRIVGG-Lys(Abz)
[7] = system: Lys(Dnp)-ATNATX4X3PRIVGG-Lys(Abz), X4 = G, X3 = K
[8] = system: Lys(Dnp)-NLAKPTLPIKIVGG-Lys(Abz)
[9] = system: Lys(Dnp)-ATNATIEPRIVGG-Lys(Abz)
[10] = system: Lys(Dnp)-ATNATX4X3PRIVGG-Lys(Abz), X4 = G, X3 = I
[11] = system: Lys(Dnp)-ATNATFTPRIVGG-Lys(Abz)
[12] = system: Lys(Dnp)-ATNATQPPRIVGG-Lys(Abz)
[13] = system: Lys(Dnp)-ATNATQHPRIVGG-Lys(Abz)
[14] = system: Lys(Dnp)-ATNATQYPRIVGG-Lys(Abz)
[15] = system: Lys(Dnp)-ATNATISPRIVGG-Lys(Abz)
[16] = system: Lys(Dnp)-ATNATWVPRIVGG-Lys(Abz)
[17] = system: Lys(Dnp)-ATNATDIPRIVGG-Lys(Abz)
[18] = system: Lys(Dnp)-ATNATTIPRIVGG-Lys(Abz)
[19] = system: Lys(Dnp)-ATNATDGPRIVGG-Lys(Abz)
[20] = system: Lys(Dnp)-ATNATTQPRIVGG-Lys(Abz)
[21] = system: Lys(Dnp)-ATNATKDPRIVGG-Lys(Abz)
[22] = system: Lys(Dnp)-ATNATVGPRIVGG-Lys(Abz)
[23] = system: Lys(Dnp)-ATNATX4X3PRIVGG-Lys(Abz), X4 = Q, X3 = L
[24] = system: Lys(Dnp)-ATNATWSPRIVGG-Lys(Abz)
[25] = system: Lys(Dnp)-ATNATAMPRIVGG-Lys(Abz)
[26] = system: Lys(Dnp)-ATNATGIPRIVGG-Lys(Abz)
[27] = system: Lys(Dnp)-ATNATX4X3PRIVGG-Lys(Abz), X4 = S, X3 = I
[28] = system: Lys(Dnp)-ATNATX4X3PRIVGG-Lys(Abz), X4 = G, X3 = Y
[29] = system: Lys(Dnp)-ATNATX4X3PRIVGG-Lys(Abz), X4 = S, X3 = H
[30] = system: Lys(Dnp)-ATNATVVPRIVGG-Lys(Abz)
[31] = system: Lys(Dnp)-DQVTVAMTPRIVGG-Lys(Abz)
[32] = system: Lys(Dnp)-ATNATPLPRIVGG-Lys(Abz)
[33] = system: Lys(Dnp)-TNATLDPRIVGG-Lys(Abz)
[34] = system: Lys(Dnp)-ATNATLMPRIVGG-Lys(Abz)
[35] = system: Lys(Dnp)-ATNATWHPRIVGG-Lys(Abz)
[36] = system: Lys(Dnp)-ATNATIIPRIVGG-Lys(Abz)
[37] = system: Lys(Dnp)-ATNATMIPRIVGG-Lys(Abz)
[38] = system: Lys(Dnp)-ATNATFHPRIVGG-Lys(Abz)
[39] = system: Lys(Dnp)-ATNATX4X3PRIVGG-Lys(Abz), X4 = T, X3 = V
[40] = system: Lys(Dnp)-ATNATX4X3PRIVGG-Lys(Abz), X4 = S, X3 = A
[41] = system: Lys(Dnp)-ATNATRIPRIVGG-Lys(Abz)

Substance: Human plasma purified α-thrombin
- FIIa kcat/KM [1]: 10000 M⁻¹ s⁻¹
- Specificity Ratio (FIIa/FXa) [1]: 12
- kcat/KM [2]: 130 M⁻¹ s⁻¹
- kcat/KM [3]: 870 M⁻¹ s⁻¹
- FIIa kcat/KM [4]: 870 M⁻¹ s⁻¹
- Specificity Ratio (FIIa/FXa) [4]: 60
- FIIa kcat/KM [5]: 770 M⁻¹ s⁻¹
- Specificity Ratio (FIIa/FXa) [5]: 32
- FIIa kcat/KM [6]: 9500 M⁻¹ s⁻¹
- Specificity Ratio (FIIa/FXa) [6]: 16
- kcat/KM [6]: 9500 M⁻¹ s⁻¹
- FIIa kcat/KM [7]: 1200 M⁻¹ s⁻¹
- Specificity Ratio (FIIa/FXa) [7]: 37
- FIIa kcat/KM [8]: 16 M⁻¹ s⁻¹
- Functional Selectivity (Specificity*FIIa kcat/KM) [8]: 88
- Specificity Ratio (FIIa/FXa) [8]: 5
- kcat/KM [8]: 16 M⁻¹ s⁻¹
- FIIa kcat/KM [9]: 12000 M⁻¹ s⁻¹
- Specificity Ratio (FIIa/FXa) [9]: 9
- kcat/KM [9]: 12000 M⁻¹ s⁻¹
- FIIa kcat/KM [10]: 1300 M⁻¹ s⁻¹
- Specificity Ratio (FIIa/FXa) [10]: 15
- FIIa kcat/KM [11]: 27000 M⁻¹ s⁻¹
- Functional Selectivity (Specificity*FIIa kcat/KM) [11]: 1.5e+07
- kcat/KM [11]: 27000 M⁻¹ s⁻¹
- FIIa kcat/KM [12]: 0 M⁻¹ s⁻¹
- Functional Selectivity (Specificity*FIIa kcat/KM) [12]: 0
- Specificity Ratio (FIIa/FXa) [12]: 0
- FIIa kcat/KM [13]: 7300 M⁻¹ s⁻¹
- Specificity Ratio (FIIa/FXa) [13]: 13
- kcat/KM [13]: 7300 M⁻¹ s⁻¹
- FIIa kcat/KM [14]: 4700 M⁻¹ s⁻¹
- Specificity Ratio (FIIa/FXa) [14]: 23
- kcat/KM [14]: 4700 M⁻¹ s⁻¹
- FIIa kcat/KM [15]: 14000 M⁻¹ s⁻¹
- Specificity Ratio (FIIa/FXa) [15]: 23
- kcat/KM [15]: 14000 M⁻¹ s⁻¹
- FIIa kcat/KM [16]: 3900 M⁻¹ s⁻¹
- Specificity Ratio (FIIa/FXa) [16]: 46
- kcat/KM [16]: 3900 M⁻¹ s⁻¹
- FIIa kcat/KM [17]: 30 M⁻¹ s⁻¹
- Functional Selectivity (Specificity*FIIa kcat/KM) [17]: 22
- Specificity Ratio (FIIa/FXa) [17]: 1
- kcat/KM [18]: 1200 M⁻¹ s⁻¹
- kcat/KM [19]: 350 M⁻¹ s⁻¹
- FIIa kcat/KM [20]: 1400 M⁻¹ s⁻¹
- Specificity Ratio (FIIa/FXa) [20]: 82
- kcat/KM [20]: 1400 M⁻¹ s⁻¹
- kcat/KM [21]: 1600 M⁻¹ s⁻¹
- FIIa kcat/KM [22]: 5100 M⁻¹ s⁻¹
- Specificity Ratio (FIIa/FXa) [22]: 103
- kcat/KM [22]: 5100 M⁻¹ s⁻¹
- FIIa kcat/KM [23]: 3500 M⁻¹ s⁻¹
- Specificity Ratio (FIIa/FXa) [23]: 7
- FIIa kcat/KM [24]: 16000 M⁻¹ s⁻¹
- Functional Selectivity (Specificity*FIIa kcat/KM) [24]: 5.2e+06
- kcat/KM [24]: 16000 M⁻¹ s⁻¹
- FIIa kcat/KM [25]: 9000 M⁻¹ s⁻¹
- Specificity Ratio (FIIa/FXa) [25]: 20
- kcat/KM [26]: 1300 M⁻¹ s⁻¹
- FIIa kcat/KM [27]: 1100 M⁻¹ s⁻¹
- Specificity Ratio (FIIa/FXa) [27]: 19
- FIIa kcat/KM [28]: 1500 M⁻¹ s⁻¹
- Specificity Ratio (FIIa/FXa) [28]: 43
- FIIa kcat/KM [29]: 1100 M⁻¹ s⁻¹
- Specificity Ratio (FIIa/FXa) [29]: 44
- FIIa kcat/KM [30]: 11000 M⁻¹ s⁻¹
- Functional Selectivity (Specificity*FIIa kcat/KM) [30]: 2.2e+06
- kcat/KM [30]: 11000 M⁻¹ s⁻¹
- FIIa kcat/KM [31]: 30000 M⁻¹ s⁻¹
- Functional Selectivity (Specificity*FIIa kcat/KM) [31]: 1.9e+06
- Specificity Ratio (FIIa/FXa) [31]: 64
- FIIa kcat/KM [32]: 7700 M⁻¹ s⁻¹
- Specificity Ratio (FIIa/FXa) [32]: 23
- kcat/KM [32]: 7700 M⁻¹ s⁻¹
- FIIa kcat/KM [33]: 3600 M⁻¹ s⁻¹
- Functional Selectivity (Specificity*FIIa kcat/KM) [33]: 15000
- Specificity Ratio (FIIa/FXa) [33]: 4
- kcat/KM [33]: 3600 M⁻¹ s⁻¹
- FIIa kcat/KM [34]: 47000 M⁻¹ s⁻¹
- Functional Selectivity (Specificity*FIIa kcat/KM) [34]: 810000
- kcat/KM [34]: 47000 M⁻¹ s⁻¹
- FIIa kcat/KM [35]: 5400 M⁻¹ s⁻¹
- Functional Selectivity (Specificity*FIIa kcat/KM) [35]: 680000
- kcat/KM [35]: 5400 M⁻¹ s⁻¹
- FIIa kcat/KM [36]: 26000 M⁻¹ s⁻¹
- Functional Selectivity (Specificity*FIIa kcat/KM) [36]: 1.4e+06
- kcat/KM [36]: 26000 M⁻¹ s⁻¹
- FIIa kcat/KM [37]: 18000 M⁻¹ s⁻¹
- Functional Selectivity (Specificity*FIIa kcat/KM) [37]: 1.4e+06
- kcat/KM [37]: 18000 M⁻¹ s⁻¹
- FIIa kcat/KM [38]: 17000 M⁻¹ s⁻¹
- Functional Selectivity (Specificity*FIIa kcat/KM) [38]: 2e+06
- kcat/KM [38]: 17000 M⁻¹ s⁻¹
- FIIa kcat/KM [39]: 980 M⁻¹ s⁻¹
- Specificity Ratio (FIIa/FXa) [39]: 50
- FIIa kcat/KM [40]: 790 M⁻¹ s⁻¹
- Specificity Ratio (FIIa/FXa) [40]: 41

Substance: Human plasma purified alpha-thrombin
- FIIa kcat/KM [41]: 1000 M⁻¹ s⁻¹
- Specificity Ratio (FIIa/FXa) [41]: 1
